The target in this assay is Proto-oncogene tyrosine-protein kinase receptor Ret (Homo sapiens, UniProt P07949). The assay can be described thus: Inhibition of RET (unknown origin) by HTRF assay.

Amino acid sequences for entries named in this document (tags omitted).
UniProt P07949, whole entry: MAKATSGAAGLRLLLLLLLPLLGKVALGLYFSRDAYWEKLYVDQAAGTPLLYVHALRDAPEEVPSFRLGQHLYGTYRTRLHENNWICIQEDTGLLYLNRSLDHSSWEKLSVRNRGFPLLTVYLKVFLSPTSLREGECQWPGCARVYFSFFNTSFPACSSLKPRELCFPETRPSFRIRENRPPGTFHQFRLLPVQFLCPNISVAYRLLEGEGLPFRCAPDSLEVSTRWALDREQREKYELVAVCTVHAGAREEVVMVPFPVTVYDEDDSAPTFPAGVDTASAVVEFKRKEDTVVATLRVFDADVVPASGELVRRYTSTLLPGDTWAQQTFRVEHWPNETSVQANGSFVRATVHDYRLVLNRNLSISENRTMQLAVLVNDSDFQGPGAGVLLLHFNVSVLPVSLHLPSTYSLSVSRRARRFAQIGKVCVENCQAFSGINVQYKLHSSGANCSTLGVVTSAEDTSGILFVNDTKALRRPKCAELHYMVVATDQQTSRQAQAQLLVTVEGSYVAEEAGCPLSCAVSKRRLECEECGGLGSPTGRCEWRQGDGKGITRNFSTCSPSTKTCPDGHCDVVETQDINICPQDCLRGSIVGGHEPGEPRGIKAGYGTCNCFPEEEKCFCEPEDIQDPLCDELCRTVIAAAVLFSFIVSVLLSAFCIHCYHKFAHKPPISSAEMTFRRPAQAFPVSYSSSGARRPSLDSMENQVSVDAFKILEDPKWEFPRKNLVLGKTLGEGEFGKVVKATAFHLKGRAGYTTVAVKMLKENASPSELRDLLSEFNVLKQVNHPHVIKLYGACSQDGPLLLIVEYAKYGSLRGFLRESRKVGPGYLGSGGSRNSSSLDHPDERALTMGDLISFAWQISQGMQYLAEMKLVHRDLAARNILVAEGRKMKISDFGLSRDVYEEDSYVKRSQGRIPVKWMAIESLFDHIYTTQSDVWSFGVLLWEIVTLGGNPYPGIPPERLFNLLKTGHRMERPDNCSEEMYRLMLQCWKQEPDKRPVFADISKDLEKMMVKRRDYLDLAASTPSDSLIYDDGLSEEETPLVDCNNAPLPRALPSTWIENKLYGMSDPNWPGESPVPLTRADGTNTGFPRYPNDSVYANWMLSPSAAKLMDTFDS

Molecules are shown by their SMILES.

In the case of `CNC(=O)c1cc(Oc2ccc(NC(=O)Nc3ccc(Cl)c(C(F)(F)F)c3)c(F)c2)ccn1` [REGORAFENIB], the IC50 came out at 1.5 nM.
